{
  "source": "paper PMC11255104",
  "about": "(Food Chemistry: X, 2024)",
  "experiment": "Pharmacokinetic study in rats after oral administration of MOL extract",
  "assay_type": "in vivo, Sprague-Dawley rats",
  "details": "rat plasma",
  "data": [
    {"substance": "Kaempferol-3-O-rutinoside", "values": [
      {"measurement": "biological / elimination half-life (in words)", "result": "longer biological half-life than other components"}
    ]}
  ]
}
